From patent publication US9198918B2, “Benzoxazepin PI3K inhibitor compounds and methods of use” (Genentech, Inc., priority 2009, dated 2015) come the findings set out here.

Amino acid sequences for entries named in this document (tags omitted).
UniProt P42336, whole entry: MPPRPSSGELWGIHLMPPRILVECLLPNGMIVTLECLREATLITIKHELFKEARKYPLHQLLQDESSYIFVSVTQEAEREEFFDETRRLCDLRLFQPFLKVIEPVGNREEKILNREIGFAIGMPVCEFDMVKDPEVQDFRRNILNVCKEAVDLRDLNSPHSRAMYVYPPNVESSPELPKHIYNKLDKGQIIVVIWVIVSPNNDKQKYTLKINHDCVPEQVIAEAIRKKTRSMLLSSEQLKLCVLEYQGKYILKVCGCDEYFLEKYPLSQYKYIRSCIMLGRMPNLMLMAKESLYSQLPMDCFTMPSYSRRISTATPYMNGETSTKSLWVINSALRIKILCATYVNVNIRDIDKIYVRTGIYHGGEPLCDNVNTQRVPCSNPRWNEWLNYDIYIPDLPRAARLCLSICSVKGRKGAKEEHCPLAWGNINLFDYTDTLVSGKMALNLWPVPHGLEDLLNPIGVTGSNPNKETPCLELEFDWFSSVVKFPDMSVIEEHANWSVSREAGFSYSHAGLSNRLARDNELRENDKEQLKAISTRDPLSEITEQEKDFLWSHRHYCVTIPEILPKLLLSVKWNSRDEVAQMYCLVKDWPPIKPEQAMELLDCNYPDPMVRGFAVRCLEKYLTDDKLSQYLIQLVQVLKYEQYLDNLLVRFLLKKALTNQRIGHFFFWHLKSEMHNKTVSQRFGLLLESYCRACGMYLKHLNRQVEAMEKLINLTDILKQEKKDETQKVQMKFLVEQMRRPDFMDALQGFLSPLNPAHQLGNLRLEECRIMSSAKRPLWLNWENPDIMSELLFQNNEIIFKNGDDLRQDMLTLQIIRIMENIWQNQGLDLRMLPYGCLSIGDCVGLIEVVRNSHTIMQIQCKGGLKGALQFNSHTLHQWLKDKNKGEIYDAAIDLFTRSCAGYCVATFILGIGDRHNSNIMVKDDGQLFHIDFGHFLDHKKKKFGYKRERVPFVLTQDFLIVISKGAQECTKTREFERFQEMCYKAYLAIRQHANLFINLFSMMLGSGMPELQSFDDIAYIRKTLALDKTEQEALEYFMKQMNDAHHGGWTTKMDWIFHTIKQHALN

A word on the IC50: it is the concentration that gives 50% inhibition.

The target in the experiment is T1, PI3K alpha (p110 alpha) (Homo sapiens, UniProt P42336).
T1 construct: purchased Upstate Cell Signaling Solutions, Charlottesville, Va
The experiment in a line: PI3K p110α (alpha) binding assay (Example 901). The note with it: read-out: IC50, inhibition of PI3K alpha (binding to p110 alpha).

With `Cc1nc(-c2cn3c(n2)-c2ccc(-c4cnn(C(C)(C)C(N)=O)c4)cc2OCC3)n(C(C)C)n1` [compound 196, 2-(4-(2-(1-isopropyl-3-methyl-1H-1,2,4-triazol-5-yl)-5,6-dihydrobenzo[f]imidazo[1,2-d][1,4]oxazepin-9-yl)-1H-pyrazol-1-yl)-2-methylpropanamide], the IC50 worked out at 0.5 nM.
